{"source": "published antibiotic growth screens (doi:10.1038/s41589-023-01349-8)", "note": "The other results are listed elsewhere or left out.", "data": [{"tested_on": "A. baumannii ATCC 17978", "test": "relative growth (fraction of control); higher = less inhibition", "details": "50 µM", "values": [{"molecule": "CC[C@@H](Sc1n[nH]c(=O)[nH]c1=O)C(=O)O", "relative growth": 0.854}, {"molecule": "CO[C@H]1CN(C)C(=O)c2ccc(NS(=O)(=O)CC(F)(F)F)cc2OC[C@@H](C)N(Cc2nccs2)C[C@@H]1C", "relative growth": 0.989}, {"molecule": "C/C=N/N(C)C=O", "relative growth": 0.972}, {"molecule": "Nc1ccc(-c2nn[nH]n2)cc1F", "relative growth": 0.894}, {"molecule": "Cc1ccc(/C=N/c2ccccc2Sc2c(C)n[nH]c2C)cc1", "relative growth": 0.982}, {"molecule": "Cn1c(=O)cc(N2CCC[C@@H](N)C2)n(Cc2ccccc2C#N)c1=O", "relative growth": 1.01}, {"molecule": "CO[C@@H]1CN(C)C(=O)c2cc(NS(=O)(=O)CC(F)(F)F)ccc2OC[C@@H](C)N(Cc2ccccn2)C[C@@H]1C", "relative growth": 1.05}, {"molecule": "CC(=C/C(=O)O)/C=C/c1ccccc1", "relative growth": 0.9}, {"molecule": "COc1ccccc1-c1ccc2c(c1)O[C@@H](CN(C)S(=O)(=O)c1ccccc1)[C@@H](C)CN([C@H](C)CO)S2(=O)=O", "relative growth": 1.19}, {"molecule": "C=CCC[C@@H](Cc1ccc(F)cc1)C(=O)OC[C@@H](Cc1c[nH]c2ccccc12)NC(=O)[C@H](CC=C)CC(=O)N[C@@H](CO)Cc1ccccc1", "relative growth": 1.01}, {"molecule": "NC[C@H]1O[C@H](O[C@H]2[C@H](O)[C@@H](O[C@H]3O[C@H](CO)[C@@H](O)[C@H](N)[C@H]3O)[C@H](N)C[C@@H]2N)[C@H](N)C[C@@H]1O", "relative growth": 0.148}, {"molecule": "CC(C)c1onc(-c2c(Cl)cccc2Cl)c1COc1ccc(C=Cc2cccc(C(=O)O)c2)c(Cl)c1", "relative growth": 1.81}, {"molecule": "Cn1cc(S(=O)(=O)Nc2ccc3c(c2)OCCO3)c(=O)n(C)c1=O", "relative growth": 0.909}, {"molecule": "Cc1cc(C2CCCCC2)n(O)c(=O)c1.NCCO", "relative growth": 0.157}, {"molecule": "C[C@]12CCC3c4ccc(O)cc4CCC3C1C[C@@H](O)[C@@H]2O", "note": "(some centres not stated)", "relative growth": 0.946}, {"molecule": "C=C1C[C@]23C[C@@]1(O)CC[C@H]2[C@@]12C=C[C@H](O)[C@@](C)(C(=O)O1)[C@H]2[C@@H]3C(=O)O", "relative growth": 1.15}, {"molecule": "C=CCC[C@@H](Cc1ccc(F)cc1)C(=O)OC[C@@H]1CCCN1C(=O)[C@@H](CC=C)CC(=O)N(CCO)Cc1ccccc1", "relative growth": 0.822}, {"molecule": "Cc1ccc(NC(=O)C[C@H]2NCCNC2=O)cc1", "relative growth": 1.15}, {"molecule": "Cc1onc(-c2ccccc2)c1C(=O)NC1C(=O)N2[C@@H]1SC(C)(C)[C@@H]2C(=O)[O-].[Na+]", "note": "(some centres not stated)", "relative growth": 0.924}, {"molecule": "O=C(C[C@@H]1C=C[C@@H](NS(=O)(=O)c2ccc(F)cc2)[C@@H](CO)O1)NCCN1CCCCC1", "relative growth": 1.02}, {"molecule": "O=c1cccc(/C=C/c2ccc3c(c2)OCO3)o1", "note": "[6-(3,4-METHYLENEDIOXYSTYRYL)-alpha-PYRONE]", "relative growth": 0.91}, {"molecule": "COc1ccc([Si](C)(C)[C@H]2[C@H](CC(=O)N3Cc4ccccc4C[C@H]3CO)O[C@@]3(C(=O)N(C)c4c(Br)cc(C)cc43)[C@@H]2C)cc1", "relative growth": 1.07}, {"molecule": "COc1ccc(-c2cnc3c(c2)C(=O)N([C@H](C)CO)C[C@H](C)[C@@H](CN(C)S(=O)(=O)c2ccc(OC)cc2)O3)cc1", "relative growth": 0.99}, {"molecule": "c1ccc2[nH]c(-c3cscn3)nc2c1", "relative growth": 0.886}, {"molecule": "CC(=O)O[C@@H]1C[C@@]23C[C@@]24CC[C@H](O[C@@H]2OC[C@@H](O)[C@H](O)[C@H]2O)C(C)(C)C4CCC3[C@]2(C)C[C@@H]3OC4(C[C@@H](C)[C@@H]3[C@@]12C)O[C@H](O)[C@]1(C)O[C@H]41", "note": "(some centres not stated)", "relative growth": 0.834}, {"molecule": "O=C(O)c1ccc(Nc2cn[nH]c(=O)n2)cc1O", "relative growth": 1.04}, {"molecule": "C[C@H](CO)N1C[C@H](C)[C@@H](CN(C)C(=O)Cc2ccncc2)Oc2cc(C#CC3CCCC3)ccc2S1(=O)=O", "relative growth": 0.814}, {"molecule": "COc1ccccc1CNC(=O)C[C@@H]1C[C@H]2c3cc(NC(=O)Nc4ccc(C(F)(F)F)cc4)ccc3O[C@H]2[C@H](CO)O1", "relative growth": 0.975}, {"molecule": "CCCNC(=O)Nc1ccc2c(c1)OC[C@@H](C)N(Cc1ccc(-c3ccccn3)cc1)C[C@@H](C)[C@@H](OC)CN(C)C2=O", "relative growth": 1.15}, {"molecule": "CCCn1c(=O)c(C#N)cn(C2CC2)c1=O", "relative growth": 0.99}, {"molecule": "Cn1cnc(S(=O)(=O)N[C@H]2CC[C@H](CC(=O)N3CCN(c4ccccc4)CC3)O[C@@H]2CO)c1", "relative growth": 1.03}, {"molecule": "COc1ccc(-c2csc(C(C#N)=C3CCCCC3)n2)cc1", "relative growth": 1.07}, {"molecule": "CCOC(=O)Cn1cc(F)c(=O)[nH]c1=O", "relative growth": 1.02}, {"molecule": "O=C(N/N=C/[C@H](O)[C@@H](O)[C@H](O[C@@H]1O[C@H](CO)[C@H](O)[C@H](O)[C@H]1O)[C@H](O)CO)c1ccccn1", "relative growth": 1.01}, {"molecule": "NC(=O)NC(=O)Cc1ccccc1", "relative growth": 1.01}, {"molecule": "COC(=O)c1c(CC[C@@H](CO)NC(=O)N[C@H](Cn2cc(C3(O)CCCCC3)nn2)C(C)C)oc(C(C)=O)c1C(=O)OC", "relative growth": 0.877}, {"molecule": "COc1ccc(C(=O)c2ccc(C)cc2)c(O)c1", "relative growth": 1.08}, {"molecule": "O=C(C[C@@H]1CC[C@@H]2[C@H](COC[C@@H](O)CN2C(=O)c2ccncc2)O1)NCc1ccc(-c2ccccc2)cc1", "relative growth": 1.05}, {"molecule": "COc1cccc(-c2ccc3c(c2)O[C@@H](CN(C)C(=O)C2CCOCC2)[C@H](C)CN([C@H](C)CO)S3(=O)=O)c1", "relative growth": 0.892}, {"molecule": "COc1cc(/C=C/C(=O)N2CCC=CC2=O)cc(OC)c1OC", "relative growth": 0.948}, {"molecule": "NCc1ccc2cc[nH]c(=O)c2c1", "relative growth": 0.957}, {"molecule": "CCn1cc(-c2ccc3ccccc3n2)c(=S)c2ccccc21", "relative growth": 0.918}, {"molecule": "COc1ccc(C2C(=O)c3ccccc3C2=O)cc1", "relative growth": 1.04}, {"molecule": "Cc1cc2n(c(=O)c1C(N)=O)CCO2", "relative growth": 1.03}, {"molecule": "C[C@@H]1CN([C@@H](C)CO)S(=O)(=O)c2ccc(C#CCC3CCCC3)cc2O[C@H]1CN(C)C(=O)c1cnccn1", "relative growth": 0.67}, {"molecule": "O=C(C[C@H]1CC[C@@H](NS(=O)(=O)c2ccc(F)cc2)[C@H](CO)O1)N1CCC(Cc2ccccc2)CC1", "relative growth": 0.881}, {"molecule": "O=C(CN1CCOCC1)NCC[C@@H]1CC[C@H](NC(=O)c2ccc3c(c2)OCO3)[C@H](CO)O1", "relative growth": 1.24}, {"molecule": "CN(C)CCCN1c2ccccc2Sc2ccc(Cl)cc21.Cl", "relative growth": 0.628}, {"molecule": "CN1C(=O)c2cc(NC(=O)C3CCCC3)ccc2OC[C@@H]2O[C@@H](CC(=O)NCCc3ccncc3)CC[C@@H]21", "relative growth": 0.987}, {"molecule": "Cc1ncc([N+](=O)[O-])n1CC(O)CCl", "note": "(configuration not stated)", "relative growth": 1.06}, {"molecule": "O=C(C1=C[C@H](c2ccc(Br)cc2)C[C@H](OCc2ccc(CO)cc2)O1)N1CCN(Cc2ccccc2)CC1", "relative growth": 0.956}, {"molecule": "CCOC(=O)[C@@H](C)n1ncn2cccc2c1=O", "relative growth": 1.04}, {"molecule": "Cn1c(=O)c2c(ncn2CCCCn2cnc3c2c(=O)n(C)c(=O)n3C)n(C)c1=O", "relative growth": 1.01}, {"molecule": "C(=N\\n1cnnc1)/c1ccccn1", "relative growth": 1.06}, {"molecule": "COCCOC(=O)N1C(=O)[C@@]2(c3cc(C#Cc4ccc(OC)cc4)ccc31)[C@H](c1ccccc1OCCO)N1[C@H](c3ccccc3)[C@H](c3ccccc3)OC(=O)[C@H]1[C@@H]2C(=O)N1CCN(c2ncccn2)CC1", "relative growth": 1.31}, {"molecule": "COc1cc(OC)c2c(OC)c(-c3ccc4c(c3)OCO4)c(=O)oc2c1", "relative growth": 0.957}, {"molecule": "NCc1nnnn1C1CCCCC1", "relative growth": 1.03}, {"molecule": "CN1C(C(=O)Nc2ccccn2)=C(O)c2sccc2S1(=O)=O", "relative growth": 0.948}, {"molecule": "Cc1cccc(NC(=O)CN2C(=O)CNC2=O)c1", "relative growth": 0.942}, {"molecule": "Cc1ccc(/C(=C\\CN2CCCC2)c2ccccn2)cc1.Cl", "relative growth": 1.11}, {"molecule": "O=C(NC1CC1)[C@@H]1c2ccccc2C(=O)N(Cc2cc(C(F)(F)F)cc(C(F)(F)F)c2)[C@H]1c1ccc(CO)cc1", "relative growth": 0.86}, {"molecule": "CC[C@@]1(O)C(=O)OCc2c1cc1n(c2=O)Cc2cc3c(CN(C)C)c(O)ccc3nc2-1.Cl", "relative growth": 0.925}, {"molecule": "O=C(C[C@@H]1CC[C@H]2[C@@H](COC[C@@H](O)CN2Cc2cc(F)ccc2F)O1)N[C@H]1CCN(Cc2ccccc2)C1", "relative growth": 0.995}, {"molecule": "COc1ccc(S(=O)(=O)N2C[C@@H](O)COC[C@@H]3O[C@@H](CC(=O)NCCCN4CCOCC4)CC[C@H]32)cc1", "relative growth": 0.893}, {"molecule": "O=C(CS)NCCCCCNC(=O)[C@H]1C[C@H]2C(=O)NCC(=O)N2[C@H]1c1cccc(OCCO)c1", "relative growth": 0.841}, {"molecule": "O=C(C[C@@H]1C=C[C@H](NC(=O)c2cccnc2)[C@@H](CO)O1)NCCN1CCCCC1", "relative growth": 1.09}, {"molecule": "Cc1c(C(N)=O)cc([N+](=O)[O-])cc1[N+](=O)[O-]", "relative growth": 0.795}, {"molecule": "O=C1CSCC(=O)N1c1cccnc1", "relative growth": 0.962}, {"molecule": "C=CCOC(=O)[C@@H]1[C@H]2C(=O)O[C@H](c3ccccc3)[C@H](c3ccccc3)N2[C@H](c2ccc(OCCOC(=O)[C@H]3C[C@H]4C(=O)N[C@@H](CCCCN(C)C)C(=O)N4[C@H]3c3cccc(OCCO)c3)cc2)[C@@]12C(=O)Nc1ccc(I)cc12", "relative growth": 1.26}, {"molecule": "Cc1nn(C)cc1NC(=O)C[C@@H]1CC[C@@H]2[C@@H](COc3ccc(NC(=O)C4CCOCC4)cc3C(=O)N2C)O1", "relative growth": 0.911}, {"molecule": "N=C(N)Nc1nc(=O)c2ccccc2[nH]1", "relative growth": 0.941}, {"molecule": "C[C@H]1CC2C3CCC4=CC(=O)C=C[C@]4(C)[C@@]3(F)[C@@H](O)C[C@]2(C)[C@@]1(O)C(=O)CO", "note": "(some centres not stated)", "relative growth": 1.22}, {"molecule": "O=c1nc(NCc2ccco2)cc[nH]1", "relative growth": 0.966}, {"molecule": "O=C(C[C@@H]1CC[C@@H](NC(=O)c2cccnc2)[C@@H](CO)O1)NCCN1CCCCC1", "relative growth": 0.921}, {"molecule": "N=C(N=C(N)N)NCCc1ccccc1", "relative growth": 0.971}, {"molecule": "COc1cccc(NC(=O)N2C[C@H](O)COC[C@H]3O[C@H](CC(=O)NC4Cc5ccccc5C4)CC[C@@H]32)c1", "relative growth": 0.862}, {"molecule": "CC(C)(C)OC(=O)C[C@@H]1CC=CC[C@H](CC(=O)N[C@@H](CO)Cc2ccccc2)C(=O)N2CCC[C@H]2COC1=O", "relative growth": 0.935}, {"molecule": "C[C@@H]1OC2=C(Cl)C(=O)N3CCC[C@H]3C[C@@]21O", "relative growth": 0.965}, {"molecule": "CC(C)c1cccc(C(C)C)c1NC(=O)Cc1cccs1", "relative growth": 0.955}, {"molecule": "Cn1c(=O)c2[nH]cnc2n(C)c1=O", "relative growth": 1.03}, {"molecule": "COCCOC(=O)N1C(=O)[C@@]2(c3cc(C#CC4(O)CCCCCC4)ccc31)[C@H](C(=O)N1CCCCCCC1)[C@H]1C(=O)O[C@H](c3ccccc3)[C@H](c3ccccc3)N1[C@@H]2c1ccc(OCCO)cc1", "relative growth": 0.988}, {"molecule": "C[C@H]1OC(=O)c2c(O)ccc(O)c2[C@H]1O", "relative growth": 1.01}]}]}
